In article PMC12422955 one finds other: FSEC peak shift data, which are given here for 7 substances.

The experiment has as its target dNOE1–mScarlet (dimeric NOE1 construct, residues 205-481 with five GCN4 residues) (UniProt Q62609). Put plainly: FSEC peak shift. To be noted: 10 nM GluA4 mutants with 50 nM dNoe 1-mScarlet; parent: est. 0.43; read off a plot.

As to “recombinant homomeric GluA4 receptor (C-terminal GFP and Strep tag) (from UniProt P19493) Y21A”, the other: FSEC peak shift was 0.26 min. Next, “recombinant homomeric GluA4 receptor (C-terminal GFP and Strep tag) (from UniProt P19493) H47A”: 0.27 min; “recombinant homomeric GluA4 receptor (C-terminal GFP and Strep tag) (from UniProt P19493) N50A”: 0.3 min.

Regarding “recombinant homomeric GluA4 receptor (C-terminal GFP and Strep tag) (from UniProt P19493) R25A”, the other: FSEC peak shift came out at 0.2 min.

“recombinant homomeric GluA4 receptor (C-terminal GFP and Strep tag) (from UniProt P19493) D49A”: the other: FSEC peak shift came out at 0.19 min. In the case of “recombinant homomeric GluA4 receptor (C-terminal GFP and Strep tag) (from UniProt P19493) R69A” it was 0.45 min; in that of “recombinant homomeric GluA4 receptor (C-terminal GFP and Strep tag) (from UniProt P19493) S65A”, 0.42 min.
